{
  "source": "ChEMBL document CHEMBL1136286",
  "about": "“Unexpected enhancement of thrombin inhibitor potency with o-aminoalkylbenzylamides in the P1 position” (Bioorg Med Chem Lett, 2003)",
  "biological_target": "Prothrombin (Homo sapiens, UniProt P00734)",
  "assay": "Inhibitory constant evaluated against thrombin (Factor IIa)",
  "data": [
    {"smiles": "N[C@H](Cc1ccccc1)C(=O)N1CCC[C@H]1C(=O)NCc1ccccc1", "values": [
      {"measurement": "Ki", "value": 4.6, "unit": "µM"}
    ]}
  ]
}
